According to patent EP2921486B1, “Compositions and methods for treating beta-amyloid related diseases” (American Life Science Pharmaceuticals, Inc., priority 2009, dated 2011):

System: Aβ(40) and Aβ(42)
Experiment: Brain, CSF and plasma Aβ ELISA after once-a-day oral gavage for one week (Example 9)
Format: in vivo, guinea pigs
Conditions: guinea pig data
Description: Guinea Pigs. Guinea Pigs (Harley strain, average weight 400 g corresponding to animals about 6 weeks old) were obtained from Charles River (Wilmington, MA). The animals were given free access to standard chow and water before and during the experiment.
Gavage Formulation: Delivering a drug by gavage offers the advantage of accurate dosing but is traumatic and thus only suitable for relatively short dosing periods. Gavage delivery was used for the guinea pig work. E64d was resuspended in DMSO at indicated concentrations (see Figures, and below) and guinea pigs were gavaged daily using a feeding tube. Vehicle control animals were provided DMSO alone.
Guinea Pig Gavage Dosing: Guinea pigs were gavaged daily for one week. Guinea pigs were lightly anesthetized with isoflurane prior to gavaging. 250 µl of compound solution was gavaged daily per animal and animals were sacrificed 4 hrs after the last dosing.

## CCOC(=O)[C@H]1O[C@@H]1C(=O)N[C@@H](CC(C)C)C(=O)NCCC(C)C (relative stereo) [AB-007, (2S,3S)-trans-epoxysuccinyl-L-leucyl-amido-3-methylbutane ethyl ester]
  oral dose maximally effective at lowering brain Aβ and cathepsin B activity: 10 mg/kg/day
